1 substance from publication PMC5854577, “A common mechanism of proteasome impairment by neurodegenerative disease-associated oligomers” (Nature Communications, 2018) can be followed below.

The target of experiment [1] is mammalian 20S proteasome (bovine liver) (bovine (purified from bovine liver)).
Experiment [2] shares this target. This is another data set of the same source.

Like-named read-outs stand apart in the source and are kept apart here.

For “intermediate-sized Aβ oligomers (Aβ-iO) (from UniProt P05067 672-713) (complex)”, the results for the IC50 of 20S proteasome activity with up to 5 μM Aβ-iO (Fig. 1d) in experiment [1] and in experiment [2] were 200 nM and 250 nM, respectively.
